MC4R antag cAMP = antagonists of human melanocortin 4 receptor (MC4R). P32245. MC4R-expressing cells, MTII-stimulated cAMP, LANCE TR-FRET. inhibition, % at 6.5 µM. 360,000 tested, 0.48% active. AID 540295;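 active = inhibition above its plate's cutoff, the mean of tested wells on that plate plus 3 SD, cut at about 29% in these data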
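System – human MC4R-expressing U2OS cells · Also added – Melanotan II · Dosing – one concentration, 6.5 µM nominal · Timing – 30-min compound, 1-h challenge, 1-h detection, room temperature · Measured by – Eu-cAMP/anti-cAMP TR-FRET, emission 671 nm · Replicates – singlicate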
HDAC3 inhib = inhibitors of human histone deacetylase 3; O15379; recombinant HDAC3, fluorogenic peptide/trypsin coupled, fluorescence; inhibition, % at 8.3 µM; 320,000 tested, 0.15% active; in the data active = inhibition above about 26%, passing the limit was not always enough
NALP1 inh = NALP1 inhibition | S. cerevisiae NALP1/ASC/caspase-1 growth, X-gal OD620, 72 h | inhibition, % at 10 µM | 280,000 tested, 0.61% active | AID 2071; in the data active = inhibition mostly above about 24%, no sharp cut-off; inactive = mostly below about 32%
UUG fidelity = modulators of start codon recognition fidelity in yeast; AID 602363; activity score, % at 18.7 µM; S. cerevisiae UUG-firefly luciferase reporter, luminescence/redox ratio; 0.13% of 350,000 active;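 active = replicate mean at a twofold rise or more, about +100% in these data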;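 note: firefly luciferase made from a UUG start codon reports start codon fidelity; reporter light over untreated wells divided by growth signal over untreated wells; some hits fall short of that in this replicate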
MC4R barr agon = human MC4R agonism via beta-arrestin | P32245 | U2OS MC4R beta-arrestin complementation, luminescence; percent of melanotan II response, DMSO zero | activation, % at 8.9 µM | 360,000 tested, 0.98% active | AID 540308;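 active = activation above a per-plate cutoff, the mean activation of sample wells on that plate plus 3 SD, cut at about 8% in these data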
ALR inh = blocks human ALR sulfhydryl oxidase activity; inhibition, % (no concentration beside the values); hit rate 3.8% among 290,000; purified ALR, DTT oxidation, H2O2 HRP-luminol luminescence; AID 485317; P55789;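 active = mean and each replicate at 75% or more; inconclusive = only one of the two met; inactive = neither met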;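 note: stock transfer was 7.5 nL into about 7.5 µL; 0% = neutral wells and 100% = wells with inactivated enzyme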
Hits are given with their value. Compounds with a hit are over-represented: about 4.2% of the library has one in this group of screens.

`Cc1cc(=O)[nH]c(SCC(=O)c2ccc(C(C)C)cc2)n1` gave MC4R antag cAMP inactive, HDAC3 inhib inactive, NALP1 inh inactive, UUG fidelity inactive, MC4R barr agon inactive and ALR inh 98.
Screening COc1ccccc1N1CCN(C(=O)CSc2nc(N)cc(=O)[nH]2)CC1 returned MC4R antag cAMP inactive, HDAC3 inhib inactive, NALP1 inh 41, UUG fidelity inactive, MC4R barr agon inactive and ALR inh inactive.
CC(C)NC(=O)N(C)C[C@@H]1Oc2ccc(NC(=O)c3ccncc3)cc2C(=O)N([C@H](C)CO)C[C@H]1C was read as UUG fidelity inactive.
Screening C[C@@H]1CN([C@H](C)CO)S(=O)(=O)c2ccc(-c3cccc(F)c3)cc2O[C@@H]1CN(C)S(=O)(=O)c1ccccc1 returned UUG fidelity inactive.
O=C(Nc1ccc(F)cc1)N[C@@H]1C=C[C@H](CC(=O)N2CCOCC2)O[C@H]1CO was read as UUG fidelity inactive.
For CCOc1cccc(/C=N/NC(=O)c2cc(C3CC3)[nH]n2)c1O the results were MC4R antag cAMP inactive, HDAC3 inhib inactive, NALP1 inh inactive, UUG fidelity inactive, MC4R barr agon inactive and ALR inh 98.
CC(=O)Nc1cc(-c2ccc(CO)cc2)cn2c(-c3ccc(F)c(Cl)c3)cnc12 was read as MC4R antag cAMP inactive, UUG fidelity inactive and MC4R barr agon 9.1.
Screening C[C@H](CO)N1C[C@H](C)[C@H](CN(C)Cc2ccccc2F)Oc2cc(C#CC3CC3)ccc2S1(=O)=O returned UUG fidelity inactive.
For CCN(CC)CC(=O)N1c2ccccc2Sc2ccccc21 the results were MC4R antag cAMP inactive, HDAC3 inhib inactive, NALP1 inh inactive, UUG fidelity inactive, MC4R barr agon inactive and ALR inh inactive.
Cc1c(C)n(CC(O)CN(CCO)CCO)c2ccccc12 (stereo not given) was read as MC4R antag cAMP inactive, HDAC3 inhib inactive, NALP1 inh inactive, MC4R barr agon inactive and ALR inh inactive.
Screening OCCN(CCO)CC(O)CN1c2ccccc2Sc2ccccc21 (stereo not given) returned MC4R antag cAMP inactive, HDAC3 inhib inactive, NALP1 inh inactive, UUG fidelity inactive, MC4R barr agon inactive and ALR inh 99.
CCN(CC)CC(O)CN1c2ccccc2Sc2ccccc21 (stereo not given) was read as MC4R antag cAMP inactive, HDAC3 inhib inactive, NALP1 inh inactive, UUG fidelity inactive, MC4R barr agon inactive and ALR inh 98.
`CCN(CC)CCCCN1c2ccccc2Sc2ccccc21` gave MC4R antag cAMP inactive, HDAC3 inhib inactive, NALP1 inh inactive, UUG fidelity inactive, MC4R barr agon inactive and ALR inh 99.
Cc1cc(C)n(CC(O)CN2c3ccccc3Sc3ccccc32)n1 (stereo not given) was read as MC4R antag cAMP inactive, HDAC3 inhib inactive, NALP1 inh inactive, UUG fidelity inactive, MC4R barr agon inactive and ALR inh 99.
For Cc1cc(C)n(CC(O)Cn2c3ccccc3c3ccccc32)n1 (stereo not given) the results were MC4R antag cAMP inactive, HDAC3 inhib inactive, NALP1 inh inactive, UUG fidelity inactive and MC4R barr agon inactive.
Screening C[C@@H]1CCCCO[C@H](CN(C)S(=O)(=O)c2cccs2)[C@@H](C)CN([C@@H](C)CO)C(=O)c2cc(NC(=O)CCCN(C)C)ccc2O1 returned UUG fidelity inactive.
Screening COc1ccc(/C=C/C(=O)Nc2cc(C)nn2-c2nc3ccccc3n2Cc2cccc([N+](=O)[O-])c2)cc1 returned MC4R antag cAMP inactive, HDAC3 inhib inactive, NALP1 inh inactive, UUG fidelity inactive, MC4R barr agon 8.6 and ALR inh inactive.
`CCn1c(C)nc2cc(C(=O)NNS(=O)(=O)c3ccc(C)c(C)c3)ccc21` gave MC4R antag cAMP inactive, HDAC3 inhib inactive, NALP1 inh inactive, UUG fidelity inactive, MC4R barr agon inactive and ALR inh 81.
For CCn1c(C)nc2cc(C(=O)NNS(=O)(=O)c3cc(Br)ccc3Br)ccc21 the results were MC4R antag cAMP inactive, HDAC3 inhib inactive, NALP1 inh inactive, MC4R barr agon inactive and ALR inh inactive.
CN(C)CCCNC(=S)N(CCN(C)C)Cc1cc2cc3c(cc2[nH]c1=O)OCCO3 was read as MC4R antag cAMP inactive, HDAC3 inhib inactive, NALP1 inh inactive, UUG fidelity inactive, MC4R barr agon inactive and ALR inh inactive.
